For orientation: EC50 means the concentration needed to bring the measured effect to its halfway point.

This is an account of results in publication PMC10624687 (Nature Communications, 2023).

The test deals with HsClpP (mitochondrial caseinolytic protease P) (Homo sapiens, UniProt Q16740). Description: biochemical. Also on record: gene CLPP.

Take `C[C@@H]1CN(Cc2ccc(F)cc2)CCN1C(=O)COc1ccc(Cl)cc1NC(N)=O` [BX471]: it took 6.07 µM to reach a half-maximal effect (EC50).
